# Assay outcomes deposited in PubChem by ICCB-Longwood Screening Facility, Harvard Medical School.
# This excerpt belongs to a sample that is enriched for hits.
# GIV-Gai inh = GIV-Galpha-i interaction inhibition. 210,000 compounds, 0.42% hits. percent of control (FP), % (no concentration beside the values). Galpha-i3/FITC-GIV peptide fluorescence polarization, 90 min; active compounds read low; scaled: aluminum fluoride 0%, vehicle 100%. AID 1224905. P08753;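 active = replicate mean at 85% of control or lower, very high polarization wells dropped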;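 note: wells of about 15 µL received 100 nL stock; the first replicate is given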
# HCMV NEC inh = disrupts HCMV UL50-UL53 complex binding. HTRF UL50-UL53 interaction, normalized percent inhibition. inhibition, % (test concentration not listed). 190,000 tested, 0.15% active. AID 1918969; in the data active = inhibition above about 27%, passing the limit was not always enough
# GIV-Gai FP conf = confirmation of inhibitors of GIV binding to rat Galpha-i3; shares compounds with GIV-Gai inh; FITC-GIV peptide binding to Galphai3, fluorescence polarization; active compounds read low; fluorescence polarization, mP at 100 µM; 580 tested, 38% active;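 active = inhibition score of 15 or more, meaning 100 minus mean polarization as percent of control over three replicates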;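 note: lower mP means peptide displaced from Galphai3 so more inhibition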
# GIV-Gai AS conf = GIV-Galpha-i3 inhibition, AlphaScreen confirmation; shares compounds with GIV-Gai inh; AlphaScreen Galphai3-GIV binding, purified proteins, 90 min; active compounds read low; AlphaScreen counts at 100 µM; 580 tested, 39% active; AID 1259351;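 active = inhibition score at or above a set limit, where the score is 100 minus the three-replicate mean percent of control signal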
# An asterisk follows results filed as active; x = no result given.
(1) N#CC(C(=O)NCCc1ccccc1)c1nc2ccccc2nc1N1CCOCC1 (stereo not given)
(2) N#CC(C(=O)NCc1ccccc1)c1nc2ccccc2nc1N1CCCC1 (stereo not given)
(3) CC(=O)Nc1ccc(S(=O)(=O)NNc2ncnc3sccc23)cc1
(4) O=c1c(=NO)c(=O)c2ccccc12
(5) O=c1c2ccccc2c2nc3c(=O)c4ccccc4c3nc12
(6) O=C1CCCC(O)=C1C=NCCCn1ccnc1
(7) O=C1CCCC(O)=C1C=Nc1ccc(N=CC2=C(O)CCCC2=O)cc1
(8) O=C1CCCc2nc(N3CCN(c4ccccc4F)CC3)ncc21
Compound | 1 | 2 | 3 | 4 | 5 | 6 | 7 | 8
GIV-Gai inh | 86.0 | x | 100.7 | 54.6* | 103.2 | 86.9 | 101.4 | 82.3*
GIV-Gai FP conf | 76.2 | x | x | 46.7* | x | 66.2 | x | 68.1
GIV-Gai AS conf | 31052 | x | x | 13907* | x | 3828* | x | 44943
HCMV NEC inh | -9.5 | -17.2 | -24.5 | 61.8 | -36.5 | -19.1 | -13.3 | -27.9

# Retrieved by structure from the entries so far, 2 records:
(7) O=C1CCCC(O)=C1C=Nc1ccc(N=CC2=C(O)CCCC2=O)cc1
(2) N#CC(C(=O)NCc1ccccc1)c1nc2ccccc2nc1N1CCCC1 (stereo not given)
Compound | 7 | 2
GIV-Gai inh | 101.4 | x
GIV-Gai FP conf | x | x
GIV-Gai AS conf | x | x
HCMV NEC inh | -13.3 | -17.2

# Continuation:
(9) Fc1ccc(CN2CCc3nc(N4CCN(c5ccccc5F)CC4)ncc3C2)c(F)c1
(10) O=C(O)Cn1c2ccc(Cl)cc2c2nc3ccccc3nc21
(11) O=C(O)Cn1c2c(c3ccccc31)CSc1ccc(Cl)cc1-2
(12) O=C(Nc1ccc(F)c(F)c1)c1nc(N2CCCCC2)c2oc3ccccc3c2n1
(13) Nc1ccc2c(c1)C(=O)N(CCO)C2=O
(14) Nc1ccc2c(c1)C(=O)N(CCCCN1C(=O)c3ccc(N)cc3C1=O)C2=O
(15) CC(C)CC(=O)NC1(C(F)(F)F)N=C2SCCN2C1=O (stereo not given)
(16) Cc1ccc2c(c1)-c1c(c(C(=O)N3CCN(c4cc(C)ccc4C)CC3)nn1C)CS2
Compound | 9 | 10 | 11 | 12 | 13 | 14 | 15 | 16
GIV-Gai inh | 104.5 | x | 86.4 | 103.8 | 89.6 | 108.6 | 112.9 | 42.2*
GIV-Gai FP conf | x | x | 71.9 | x | 63.4 | x | x | 36.2*
GIV-Gai AS conf | x | x | 18488* | x | 44198 | x | x | 26353
HCMV NEC inh | x | -91.4 | x | x | -37.7 | -26.9 | 5.3 | x

(17) Cn1nc(C(=O)N2CCN(c3ccc(Cl)cc3)CC2)c2c1-c1ccccc1SC2
(18) CCOC(=O)C1CCN(C(=O)c2snc3c(=O)n(C(C)C)c(=O)[nH]c23)CC1
(19) O=C1CCCC2=C1C1(O)C(=O)c3ccccc3C1(O)O2 (stereo not given)
(20) Nc1ccc2c(c1)OC1(O)c3ccccc3C(=O)C21O (stereo not given)
(21) CN1/C(=C2/S/C(=N\c3ncn[nH]3)N(Cc3ccccc3)C2=O)Sc2ccccc21
(22) Cn1c(-c2ccccc2)c(/C=N/NC(=O)c2cccs2)c2ccccc21
(23) Cn1c(-c2ccccc2)c(/C=C2/C(=O)Oc3ccccc3C2=O)c2ccccc21
(24) C=CCNc1nc(C(=O)OCC(=O)N(C2CCCCC2)C2CCS(=O)(=O)C2)cs1 (stereo not given)
Compound | 17 | 18 | 19 | 20 | 21 | 22 | 23 | 24
GIV-Gai inh | 100.1 | 96.0 | 58.6* | x | 121.3 | x | 44.5* | x
GIV-Gai FP conf | x | x | 53.7* | x | x | x | 65.6 | x
GIV-Gai AS conf | x | x | 53411 | x | x | x | 25749 | x
HCMV NEC inh | -15.5 | x | 78.4* | -20.3 | 2.3 | -25.4 | x | -2.8

(25) CCOC(=O)c1sc2cc(OC)ccc2c1Cl
(26) O=C(CSc1nnc2c(n1)CCCC2)c1ccc(N2CCCC2=O)cc1
(27) O=C(CSc1nnc(-c2ccccn2)c(-c2ccccn2)n1)c1ccc(N2CCCC2=O)cc1
(28) COc1ccc(C2/C(=C(/O)c3ccccc3)C(=O)C(=O)N2CCNC(C)=O)cc1 (stereo not given)
(29) COc1ccc(C(=O)c2sc3nc(C)cc(C(F)(F)F)c3c2N)cc1OC
(30) CCc1nc2sc(C(=O)Nc3cccc(C(F)(F)F)c3)c(N)c2cc1C
(31) Cc1cc(C(F)(F)F)c2c(N)c(C(=O)Nc3cccc(C(F)(F)F)c3)sc2n1
(32) COC(=O)c1sc2nc(C)cc(C(F)(F)F)c2c1N
Compound | 25 | 26 | 27 | 28 | 29 | 30 | 31 | 32
GIV-Gai inh | x | 65.7* | 107.0 | 103.5 | 62.5* | 108.4 | 81.7* | x
GIV-Gai FP conf | x | 53* | x | x | 69 | x | 62.5 | x
GIV-Gai AS conf | x | 2430* | x | x | 55081 | x | 56533 | x
HCMV NEC inh | 6.3 | 25.8 | -44.1 | x | x | x | x | -12.9

(33) CCOC(=O)CN1C(=O)S/C(=C/c2cn(CC(N)=O)c3ccccc23)C1=O
(34) O=C(NCCc1ccccc1)[C@@H]1CCCN1C(=O)c1cccs1
(35) Cc1ccc(/C=N/c2sccc2C#N)cc1
(36) N#Cc1ccsc1/N=C/c1ccccc1
(37) Cc1cc(C)cc(NC(=O)CCc2nc(CSc3n[nH]c(-c4ccccc4)n3)no2)c1
(38) O=C(/C=C/Sc1nc2ccccc2o1)c1ccccc1
(39) O=C(/C=C/Sc1ccccn1)c1ccccc1
(40) CC(C)(C)C(=O)c1sc2nc3c(c(-c4cccs4)c2c1N)CCC3
Compound | 33 | 34 | 35 | 36 | 37 | 38 | 39 | 40
GIV-Gai inh | 103.0 | x | 48.4* | 105.7 | 112.1 | 101.2 | 85.7 | x
GIV-Gai FP conf | x | x | 39.8* | x | x | x | 62.6 | x
GIV-Gai AS conf | x | x | 10146* | x | x | x | 40583 | x
HCMV NEC inh | -31.9 | -25.4 | -9.7 | -24.2 | x | -21.8 | -9.9 | -9.5

(41) COc1cc(/C=C2\C(=O)N(c3ccc(S(N)(=O)=O)cc3)N=C2C)cc(Br)c1OCc1ccccc1
(42) COc1cc(/C=C2\C(=O)N(c3ccc(Cl)c(C(=O)O)c3)N=C2C)ccc1OCc1ccccc1
(43) CCn1c(=O)c(SCC(=O)N2CCN(c3cccc(OC)c3)CC2)nc2ccccc21
(44) CCN(CC)c1ccc2cc(S(=O)(=O)c3ccc(F)c(Cl)c3)c(=O)oc2c1
(45) CCN(CC)c1ccc2ccc(=O)oc2c1
(46) COc1ccc(-c2nnc(SCC(=O)Nc3cccc(C)c3C)nc2-c2ccc(OC)cc2)cc1
(47) COc1ccc(-c2nnc(SCC(=O)Nc3ccc(C)cc3)nc2-c2ccc(OC)cc2)cc1
(48) COc1ccc(C(=O)Nc2ccccc2SCc2cc(=O)c3cccc(C)c3[nH]2)cc1
Compound | 41 | 42 | 43 | 44 | 45 | 46 | 47 | 48
GIV-Gai inh | 66.3* | 109.1 | 119.1 | 56.2* | 136.9 | 118.9 | 90.8 | 105.7
GIV-Gai FP conf | 58.6 | x | x | 70.6 | x | x | 65.5 | x
GIV-Gai AS conf | 27596* | x | x | 47488 | x | x | 47508 | x
HCMV NEC inh | 46.2* | 25.9 | -71.2 | -0.8 | -92.7 | x | x | x

(49) COc1ccccc1C(=O)Nc1ccccc1SCc1cc(=O)c2ccccc2[nH]1
(50) COc1cc(-c2nc3ccccn3c2N)ccc1O
(51) COc1cc(/C=N/c2c(-c3ccc(O)c(OC)c3)nc3ccccn23)ccc1O
(52) Cc1ccnc(NC(=O)C2CCCCC2)c1
(53) Cc1ccc(-c2nc3ccccc3c(=O)[nH]2)cc1
(54) O=c1[nH]c(-c2ccc(O)cc2)nc2ccccc12
(55) O=C(Cc1ccc(F)cc1)NC1CCCCC1
(56) Cc1c(Nc2nc3nonc3nc2Nc2ccccc2F)c(=O)n(-c2ccccc2)n1C
Compound | 49 | 50 | 51 | 52 | 53 | 54 | 55 | 56
GIV-Gai inh | 52.7* | 24.0* | x | x | 101.3 | 88.0 | x | 125.9
GIV-Gai FP conf | 53.1* | 50.7 | x | x | x | 69.1 | x | 67.9
GIV-Gai AS conf | 30214 | 18629* | x | x | x | 45426 | x | 44712
HCMV NEC inh | x | 93.9* | -50.8 | -15.7 | -10.7 | -18.3 | 0.1 | -6.7

(57) Cc1c(Nc2nc3nonc3nc2Nc2ccc(F)cc2)c(=O)n(-c2ccccc2)n1C
(58) CCOc1cccc(=O)c2c(C)oc(C)c12
(59) CCOc1cccc(=[O+]CC)c2c(C)oc(C)c12
(60) O=C(CN1C(=O)c2ccccc2S1(=O)=O)N1CCCCCC1
(61) O=C(Nc1ccc(N2CCCCC2)cc1)c1ccc(=O)oc1
(62) CC1(C)CC(=O)C2=C(C1)Nc1ccccc1NC2c1ccccc1F (stereo not given)
(63) CC1(C)CC(=O)C2=C(C1)Nc1ccccc1S2
(64) CCOC(=O)C1CCN(c2c(NCCc3ccc(OC)c(OC)c3)c(=O)c2=O)CC1
Compound | 57 | 58 | 59 | 60 | 61 | 62 | 63 | 64
GIV-Gai inh | 105.8 | 92.0 | 68.1* | 99.1 | x | 102.8 | 77.7* | 100.0
GIV-Gai FP conf | x | x | 44.2* | x | x | x | 69.6 | x
GIV-Gai AS conf | x | x | 2733* | x | x | x | 61627 | x
HCMV NEC inh | x | -56.8 | x | -11.2 | -18.5 | 1.1 | -51.8 | -40.9

# Some entries already given, reduced to GIV-Gai AS conf, GIV-Gai inh and HCMV NEC inh:
item	molecule	GIV-Gai AS conf	GIV-Gai inh	HCMV NEC inh
59	CCOc1cccc(=[O+]CC)c2c(C)oc(C)c12	2733*	68.1*	x
60	O=C(CN1C(=O)c2ccccc2S1(=O)=O)N1CCCCCC1	x	99.1	-11.2
61	O=C(Nc1ccc(N2CCCCC2)cc1)c1ccc(=O)oc1	x	x	-18.5
62	CC1(C)CC(=O)C2=C(C1)Nc1ccccc1NC2c1ccccc1F (stereo not given)	x	102.8	1.1

# Further records follow.
(65) O=C(CCC1CCCCC1)Nc1ccc(-c2cn3cccnc3n2)cc1
(66) O=C(O)c1ccccc1C(=O)c1ccccc1
(67) O=C(c1ccccc1)c1cccc2c1NCC2
(68) c1cc2n[nH]nc2cn1
(69) CCCC(=O)Nc1cc(N2CCn3c(nc4ccccc43)C2)ccc1C
Compound | 65 | 66 | 67 | 68 | 69
GIV-Gai inh | 103.9 | x | 81.0* | x | 106.2
GIV-Gai FP conf | x | x | 64.9 | x | x
GIV-Gai AS conf | x | x | 29262 | x | x
HCMV NEC inh | x | 1.7 | -11.3 | -0.9 | -10.0
